# Laboratory results reported in ChEMBL document CHEMBL2021815, “Metabolism of 4-Aminopiperidine Drugs by Cytochrome P450s: Molecular and Quantum Mechanical Insights into Drug Design” (ACS Med Chem Lett, 2011).
# Sequences of proteins named here, by UniProt entry; tags and fusion partners are left off. Residues count along the entry.
# UniProt P20813, whole entry: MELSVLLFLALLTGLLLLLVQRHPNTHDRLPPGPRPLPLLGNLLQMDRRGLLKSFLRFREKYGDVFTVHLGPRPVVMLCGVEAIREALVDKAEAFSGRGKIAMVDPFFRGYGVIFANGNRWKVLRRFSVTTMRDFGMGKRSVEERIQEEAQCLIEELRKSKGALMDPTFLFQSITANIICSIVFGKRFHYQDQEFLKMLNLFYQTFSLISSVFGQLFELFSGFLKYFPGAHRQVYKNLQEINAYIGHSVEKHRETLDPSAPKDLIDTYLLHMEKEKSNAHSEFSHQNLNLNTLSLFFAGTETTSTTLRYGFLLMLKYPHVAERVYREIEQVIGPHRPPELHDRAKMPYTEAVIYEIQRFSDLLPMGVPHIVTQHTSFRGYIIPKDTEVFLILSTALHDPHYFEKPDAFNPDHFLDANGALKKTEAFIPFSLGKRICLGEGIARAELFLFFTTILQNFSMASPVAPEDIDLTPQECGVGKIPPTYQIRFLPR
# UniProt P10632, whole entry: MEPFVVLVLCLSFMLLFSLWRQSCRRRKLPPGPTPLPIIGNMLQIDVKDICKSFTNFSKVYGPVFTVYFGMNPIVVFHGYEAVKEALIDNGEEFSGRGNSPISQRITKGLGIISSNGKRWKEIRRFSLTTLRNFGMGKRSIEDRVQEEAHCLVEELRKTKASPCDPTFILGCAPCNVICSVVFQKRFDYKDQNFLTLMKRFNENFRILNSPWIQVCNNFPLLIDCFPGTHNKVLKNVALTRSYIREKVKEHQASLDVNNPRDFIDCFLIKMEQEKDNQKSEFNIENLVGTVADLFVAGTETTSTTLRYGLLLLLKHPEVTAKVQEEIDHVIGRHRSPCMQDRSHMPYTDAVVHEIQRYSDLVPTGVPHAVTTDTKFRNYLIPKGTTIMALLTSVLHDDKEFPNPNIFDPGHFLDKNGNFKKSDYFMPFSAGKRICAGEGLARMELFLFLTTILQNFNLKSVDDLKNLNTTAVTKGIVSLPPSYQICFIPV
# UniProt P11712, whole entry: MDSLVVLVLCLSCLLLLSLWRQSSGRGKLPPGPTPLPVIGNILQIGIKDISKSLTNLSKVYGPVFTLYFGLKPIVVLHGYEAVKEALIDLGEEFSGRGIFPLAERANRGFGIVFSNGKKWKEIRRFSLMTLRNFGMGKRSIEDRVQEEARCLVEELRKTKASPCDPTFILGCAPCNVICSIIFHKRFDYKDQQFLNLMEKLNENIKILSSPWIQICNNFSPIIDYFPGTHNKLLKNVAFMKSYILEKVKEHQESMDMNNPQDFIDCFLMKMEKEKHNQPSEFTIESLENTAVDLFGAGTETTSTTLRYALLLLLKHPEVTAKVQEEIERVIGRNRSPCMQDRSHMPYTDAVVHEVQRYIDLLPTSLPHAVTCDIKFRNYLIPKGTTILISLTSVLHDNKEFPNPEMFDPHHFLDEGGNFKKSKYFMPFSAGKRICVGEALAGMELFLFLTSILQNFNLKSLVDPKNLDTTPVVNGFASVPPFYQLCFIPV
# UniProt P05177, 2-516 limits assumed: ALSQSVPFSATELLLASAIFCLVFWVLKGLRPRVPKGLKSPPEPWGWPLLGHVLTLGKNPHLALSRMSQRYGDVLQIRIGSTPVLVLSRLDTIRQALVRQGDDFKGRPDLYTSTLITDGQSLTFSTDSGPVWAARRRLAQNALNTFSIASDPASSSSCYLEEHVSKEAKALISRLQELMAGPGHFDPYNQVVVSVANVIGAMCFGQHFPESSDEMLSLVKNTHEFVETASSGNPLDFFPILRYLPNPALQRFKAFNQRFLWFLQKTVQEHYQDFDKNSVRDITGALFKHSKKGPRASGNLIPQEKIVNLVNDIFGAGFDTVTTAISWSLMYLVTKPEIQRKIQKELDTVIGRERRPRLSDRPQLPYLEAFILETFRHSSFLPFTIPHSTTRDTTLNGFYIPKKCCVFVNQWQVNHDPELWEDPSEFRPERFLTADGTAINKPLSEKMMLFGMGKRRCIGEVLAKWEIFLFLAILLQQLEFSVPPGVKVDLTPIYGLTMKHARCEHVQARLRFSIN
# This is a selection: effects in other tests are not listed, and their absence says nothing.
# Key:
# Format in all cases: ADME, Microsome
# Cytochrome P450 2B6 = Cytochrome P450 2B6 (Homo sapiens, UniProt P20813); experiment: Half life in human liver microsomes assessed as CYP2B6-mediated parent compound depletion at 1 uM
# Cytochrome P450 2C8 = Cytochrome P450 2C8 (Homo sapiens, UniProt P10632); experiment: Half life in human liver microsomes assessed as CYP2C8-mediated parent compound depletion at 1 uM
# Cytochrome P450 2C9 = Cytochrome P450 2C9 (Homo sapiens, UniProt P11712); experiment: Half life in human liver microsomes assessed as CYP2C9-mediated parent compound depletion at 1 uM
# Cytochrome P450 1A2 = Cytochrome P450 1A2 (Homo sapiens, UniProt P05177); experiment: Half life in human liver microsomes assessed as CYP1A2-mediated parent compound depletion at 1 uM
# Liver microsomes = experiment: Clearance in human liver microsomes at 1 uM
structure (smiles),measurement,setting,value
CC(C)N1CCC(N(C(=O)Cc2ccccc2)c2ccc(Cl)cc2)CC1,t1/2,Cytochrome P450 2B6,> 1 h
same,t1/2,Cytochrome P450 2C8,> 1 h
same,t1/2,Cytochrome P450 2C9,> 1 h
same,t1/2,Cytochrome P450 1A2,> 1 h
same,CLH,Liver microsomes,159 µL/min/mg
